Key:
LNCap cells = assay: Cell viability assay, LNCap; conditions: read-out: LNCap (GI50), 6 days, CellTiterGlo, tested form: formate
Procedure: (§1) Cell viability assay: LNCap, 22Rv1, MCF7, MDAMB361, T47D, and IEC6 cells are seeded at a density of 500-2000 cells/well in 96 well plates, and a ‘T0’ (timepoint 0) was included along with the assay plate. The plates are then incubated at 37° C., 5% CO2 in a cell culture incubator overnight. On the next day, the ‘T0’ plate was assayed using CellTiterGlo (Promega, Inc) according to the manufacturer's instructions. The appropriate compounds are diluted in DMSO and added to the assay plate (final DMSO concentration of 0.1-0.2%) on the next day. The assay plates are incubated for 6 days at 37° C., 5% CO2. After the incubation period, the plates are assayed using CellTiterGlo (Promega, Inc) according to the manufacturer's instructions and luminescence was read on the EnVision plate reader. Inhibition of the tested compounds was determined by the following formula: Inhibition rate (%)=(1−(RLU compound−RLU day0)/(RLU control−RLU day0))*100%. GraphPadPrism was used to analyze the data and determine GI50/IC50 values.

Chains of the proteins cited; added tags and fusions are not shown.
UniProt P10275, whole entry: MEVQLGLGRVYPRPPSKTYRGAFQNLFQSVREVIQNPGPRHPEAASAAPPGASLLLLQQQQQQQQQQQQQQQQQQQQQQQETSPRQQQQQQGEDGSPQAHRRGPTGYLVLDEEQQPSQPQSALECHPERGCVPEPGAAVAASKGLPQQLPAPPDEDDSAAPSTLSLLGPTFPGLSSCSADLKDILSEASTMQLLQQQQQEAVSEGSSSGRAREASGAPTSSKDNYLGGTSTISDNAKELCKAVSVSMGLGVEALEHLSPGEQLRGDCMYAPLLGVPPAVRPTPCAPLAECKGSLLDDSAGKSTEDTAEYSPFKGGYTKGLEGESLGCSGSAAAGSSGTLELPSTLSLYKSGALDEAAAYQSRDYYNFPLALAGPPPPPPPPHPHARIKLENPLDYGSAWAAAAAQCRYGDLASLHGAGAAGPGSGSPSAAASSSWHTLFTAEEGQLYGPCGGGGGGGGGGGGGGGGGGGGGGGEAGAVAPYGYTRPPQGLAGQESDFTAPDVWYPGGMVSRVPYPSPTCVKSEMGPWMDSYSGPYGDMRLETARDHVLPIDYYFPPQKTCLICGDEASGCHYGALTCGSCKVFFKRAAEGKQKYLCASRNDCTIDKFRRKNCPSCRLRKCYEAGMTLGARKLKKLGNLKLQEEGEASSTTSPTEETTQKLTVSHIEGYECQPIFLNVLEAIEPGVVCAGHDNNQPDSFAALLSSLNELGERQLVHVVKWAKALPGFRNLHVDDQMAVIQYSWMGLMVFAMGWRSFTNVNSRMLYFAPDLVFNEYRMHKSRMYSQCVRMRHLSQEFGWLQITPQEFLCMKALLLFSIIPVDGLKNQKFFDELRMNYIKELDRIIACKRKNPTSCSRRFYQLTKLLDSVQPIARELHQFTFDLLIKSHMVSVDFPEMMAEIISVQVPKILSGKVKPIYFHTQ
UniProt P10275, whole entry T878A: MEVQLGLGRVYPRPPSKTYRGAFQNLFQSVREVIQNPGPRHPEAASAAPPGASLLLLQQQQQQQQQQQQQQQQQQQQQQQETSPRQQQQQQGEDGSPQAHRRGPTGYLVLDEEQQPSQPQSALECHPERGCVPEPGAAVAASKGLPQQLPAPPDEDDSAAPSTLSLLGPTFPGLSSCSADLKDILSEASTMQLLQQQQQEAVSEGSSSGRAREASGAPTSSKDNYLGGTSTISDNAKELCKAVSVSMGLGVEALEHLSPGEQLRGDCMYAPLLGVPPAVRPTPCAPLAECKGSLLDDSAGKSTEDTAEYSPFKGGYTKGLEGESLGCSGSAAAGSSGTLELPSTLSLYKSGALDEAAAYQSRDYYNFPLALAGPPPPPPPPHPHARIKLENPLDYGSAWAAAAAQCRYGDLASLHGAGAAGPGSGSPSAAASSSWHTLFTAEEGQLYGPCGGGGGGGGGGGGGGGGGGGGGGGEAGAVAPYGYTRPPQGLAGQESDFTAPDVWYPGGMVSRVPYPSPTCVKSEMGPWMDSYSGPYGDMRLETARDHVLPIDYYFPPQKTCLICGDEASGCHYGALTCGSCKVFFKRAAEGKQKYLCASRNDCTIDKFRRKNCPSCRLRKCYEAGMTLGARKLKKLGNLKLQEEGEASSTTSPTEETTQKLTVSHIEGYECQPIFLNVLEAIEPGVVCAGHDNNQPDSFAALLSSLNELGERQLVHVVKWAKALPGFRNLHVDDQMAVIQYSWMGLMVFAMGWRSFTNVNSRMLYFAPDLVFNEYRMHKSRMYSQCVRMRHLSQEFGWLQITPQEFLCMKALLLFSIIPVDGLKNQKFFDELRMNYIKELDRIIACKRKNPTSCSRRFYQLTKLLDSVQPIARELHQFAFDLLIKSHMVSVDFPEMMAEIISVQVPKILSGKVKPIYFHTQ

AR = AR (Homo sapiens (Human), UniProt P10275, T878A); assay: AR binding assay; conditions: read-out: AR binding; cytosol from LnCaP cells, 3H-R1881 1 nM, 4° C. 24 hrs; tested form: formate
Procedure: AR binding assay: To assess AR binding, test compound (top dose 10 μM, 4 fold serial dilution, 8 point dose response) and control (progesterone) were transferred to the assay plate. Cytosol from LnCaP cells was added to the plate, followed by addition of radiolabeled ^3H-R1881 at a final concentration of 1 nM. The plate was sealed, and the reaction was incubated at 300 rpm at 4° C. for 24 hrs. Radioligand absorption buffer (10 mM Tris-HCl, pH 7.4; 1.5 mM EDTA; 1 mM DTT; 0.25% charcoal; 0.0025% dextran) was then added to the plate, mixed, and incubated at 4° C. for 15 minutes. The plate was then centrifuged at 3000 rpm for 30 minutes at 4° C. The supernatant was transferred to the scint-tube and Tri-carb was used for scintillation counting. The data was analyzed using GraphPadPrism v5.0 and binding IC50 was determined as the concentration where 50% inhibition of radioligand binding was observed.

22Rv1 cells = assay: Cell viability assay, 22Rv1; conditions: read-out: 22RV1 (GI50), 6 days, CellTiterGlo, tested form: formate
Procedure: as §1

IEC6 cells = assay: Cell viability assay, IEC6; conditions: read-out: IEC-6 (IC50); IEC-6 cells, 6 days, CellTiterGlo; tested form: formate
Procedure: as §1

[1] = molecular target: full-length androgen receptor (Homo sapiens (Human), UniProt P10275); assay: AR antagonism assay; format: cell-based; conditions: read-out: AR antagonism; HEK293 cells stably expressing full-length androgen receptor, testosterone 1 nM, 20 h; tested form: formate
Procedure: AR antagonism assay: To evaluate AR antagonist activity, test compound was added to the assay plate (top dose 10 μM, 3 fold serial dilution, 10 point dose response). HEK293 cells stably expressing the full-length androgen receptor were seeded at a density of 20,000 cells/well in the assay plate. The assay plate was then incubated at room temperature for 10 minutes and at 37° C., 5% CO2 for 20 minutes. Testosterone was added to the assay plate at 1 nM final concentration and the assay plate incubated at 37° C., 5% CO2 for 20 h. After the incubation period, Steady-glo was added to the assay plate and mixed at room temperature for 20 minutes on an orbital shaker, before reading out on the EnVision plate reader.

CC[C@@]1(O)C(=O)OCc2c1cc1n(c2=O)Cc2cc3c(CN(C)C)c(OC(=O)N4CCN(CCCCCCNC(=O)c5ccc(N6C(=S)N(c7ccc(C#N)c(C(F)(F)F)c7)C(=O)C6(C)C)cc5F)CC4)ccc3nc2-1
10 to 500 nM: GI50 (LNCap cells) | IC50 (AR) | GI50 (22Rv1 cells) | IC50 (IEC6 cells) | IC50 [1]

From patent publication US11834458B2, “Anti-cancer nuclear hormone receptor-targeting compounds” (Nuvation Bio Inc., priority 2021, dated 2023)
